The record followed here is PubChem BioAssay AID624351 (Southern Research Specialized Biocontainment Screening …, 2012).

Usually inhibition stands for the percentage by which the read-out fell short of the control.

This is a selection; strong and weak results do not stand in their true shares. Active and inactive are the calls of the source.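 Rule for the calls: active = inhibition of 30% or more at any tested dose; inconclusive = primary hits over the limit that were never retested; inactive = the rest.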

The assay is described as follows: ADP Hunter readout inhibition without MgcRacGAP – biochemical, coupled enzyme counter-screen, artefact control for MgcRacGAP inhibitor project, dose response (AID 624351).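 Note: signal is the ADP detection kit reading of free GDP without any GAP enzyme; 0% = median positive control wells and 100% = median negative control wells.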 Particulars: fluorescence, no MgcRacGAP; at 80 µM (top of the series).
On to `CCCCCCCCCCCCCCCC1C[N+](C)(C)CCOP(C)(=O)O1` (stereo unspecified), for which the inhibition is inactive: 3.47%.
